Only a part is listed here, and it is no random draw. Some tests of the compounds listed are not included; inactive here does not mean inactive elsewhere. Calls of active or inactive are those of the source.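 How the source made its calls: active means inhibition above a set limit, 3 SD over the mean compound inhibition (cut at about 44% in these data); inactive means the rest.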
assay: growth inhibitors of yeast BB579 in restrictive medium, primary screen, yeast lifespan-shortening project, S. cerevisiae (AID 804); conditions: OD615, 48 h, at 10 µM, hits give high values
Procedure, shortened: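 Assay system – yeast BB579 (DeaD) · Dosing – single compound dose of 10 µM, 0.25% DMSO final · Detection – OD615 turbidity measurement · Buffer or medium – CSMM-D restrictive synthetic medium containing dextrose (glucose) · Benchmarks – positive control amphotericin B 10 µg/mL · Incubation – 48 h exposure, 30 °C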

Row | Structure (SMILES) | inhibition
1 | CC(C)N1C(=O)CC2(CCN(CCOC(=O)C(O)(c3ccccc3)c3ccccc3)CC2)C1=O | inactive: -13.6%
2 | CCN1CCCC(OC(=O)C2(O)c3ccccc3C=Cc3ccccc32)C1 (stereo not given) | inactive: -1.62%
3 | CN(C)C1CCCC1OC(=O)C(O)(c1ccccc1)c1ccccc1 (stereo not given) | inactive: -21.1%
4 | CN(C)c1cccc(C(=O)NCC2(N(C)C)CCCCC2)c1 | inactive: -14.4%
5 | O=C(OC1CN2CCC1CC2)C(CO)(c1ccccc1)c1ccccc1 (stereo not given) | inactive: -14.7%

Source: PubChem BioAssay AID804 (SRMLSC, 2007)
